Earlier results, collected in US11951152B1, “Microparticle compositions for controlled delivery of telmisartan and actinomycin D” (University of South Florida, priority 2019, dated 2024).

Target: angiotensin II receptor type 1 (AT1) (Homo sapiens, UniProt P30556)
Conditions: AT1 versus AT2 selectivity

CCCc1nc2c(C)cc(-c3nc4ccccc4n3C)cc2n1Cc1ccc(-c2ccccc2C(=O)O)cc1 [Telmisartan]
binding affinity greater for AT1 than for AT2: about 3000 times
